Molecules are shown by their SMILES. The entries are a selection whose mix differs from that of the whole data set. Some tests of the compounds listed are not included; inactive here does not mean inactive elsewhere. Active and inactive are the calls of the source. No stated cut-off is given here; in the data, active means inhibition above about 11%; inactive means the rest.

This test is described as follows: reduced absorbance of E. coli cultures with phage – HTS, RecBCD inhibitor project, primary screen (AID 651602). The settings on record: growth absorbance, at 11.9 µM, hits give high values.
In general, inhibition refers to the relative decrease from the control value, in per cent. With `COc1ccc(Br)c(C(=O)NCC2(N3CCCCC3)CCCCC2)c1`, the inhibition is inactive: 1.07%.

`C=C(C)C#CC(O)(C(=O)OC1CCN(C)CC1)c1ccccc1` (stereo unspecified): the inhibition was inactive: 1.63%. The figure for `CN(C)c1cccc(C(=O)NCC2(N(C)C)CCCCC2)c1` is inactive: 2.06%; for `CC(C)Oc1ccc(C(=O)NCC2(N(C)C)CCCCC2)cc1` it is inactive: 1.51%. Then `O=C(OCCN1CCCC1)C(O)(c1ccccc1)c1ccccc1`, with inactive: 1.93%.

Take `O=C(OC1CN2CCC1CC2)C(CO)(c1ccccc1)c1ccccc1` (stereo unspecified): the inhibition is inactive: 1.26%. The figure for `COc1cccc(C(=O)NCC2(N3CCCCC3)CCCCC2)c1` is inactive: 1.23%; for `COc1ccc(Cl)cc1C(=O)NCC1(N(C)C)CCCCC1` it is inactive: 2.46%. Then `O=C(NCC1(N2CCCCC2)CCCCC1)c1cccc(Cl)c1`, with inactive: 2.82%. The figure for `CN(C)C1(CNC(=O)c2ccc(Br)cc2)CCCCC1` is inactive: 0.87%; for `COc1cc(C(=O)NCC2(N(C)C)CCCCC2)c([N+](=O)[O-])cc1OC` it is inactive: -0.63%. `C=CCN1CCN(CCOC(=O)C(O)(c2ccccc2)c2ccccc2)CC1`: the inhibition was inactive: 2.47%. The figure for `O=C(NCC1(N2CCCCC2)CCCCC1)c1cc(F)c(F)cc1Cl` is inactive: 1.84%. The figure for `Cc1cc(C(=O)NCC2(N3CCCCC3)CCCCC2)ccc1[N+](=O)[O-]` is inactive: 1.2%; for `CCN1CCCC(OC(=O)C2(O)c3ccccc3C=Cc3ccccc32)C1` (stereo unspecified) it is inactive: -3.87%; for `O=C(NCC1(N2CCCCC2)CCCCC1)c1cccc(Br)c1` it is inactive: 0.48%. `COc1ccc(C(=O)NCC2(N(C)C)CCCCC2)cc1`: the inhibition is inactive: 1.51%. Then `Cc1ccccc1C(=O)NCC1(N2CCCCC2)CCCCC1`, with inactive: 2.85%; and `CN(C)C1CCCC1OC(=O)C(O)(c1ccccc1)c1ccccc1` (stereo unspecified), with inactive: 2.53%. The figure for `CN(C)c1ccc(C(=O)NCC2(N(C)C)CCCCC2)cc1` is inactive: 3.59%.

As for `CC(C)N1C(=O)CC2(CCN(CCOC(=O)C(O)(c3ccccc3)c3ccccc3)CC2)C1=O`, the inhibition was inactive: 0.87%. The figure for `CCN(CC)CC(C)C(C)OC(=O)C(O)(c1ccccc1)c1ccccc1` (stereo unspecified) is inactive: 2.6%; for `COc1cc(SC)ccc1C(=O)NCC1(N(C)C)CCCCC1` it is inactive: -1.11%.

As to `Cc1ccc(C(=O)NCC2(N3CCCCC3)CCCCC2)cc1`, the inhibition was inactive: 4.39%. As to `O=C(NCC1(N2CCCCC2)CCCCC1)c1cc([N+](=O)[O-])ccc1Cl`, the inhibition is inactive: 2.3%. Consider `CN1[C@@H]2CC[C@H]1CC(OC(=O)C(O)(c1ccccc1)c1ccccc1)C2` (stereo partly specified), for which the inhibition is inactive: 4.52%.

These data come from PubChem BioAssay AID651602 (The Scripps Research Institute Molecular Screening Center, 2012).
